Reported fraction unbound values for industrial, environmental and drug-like chemicals

Data: OPERA 2.9 data sets, kmansouri/OPERA on GitHub.

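These are experimental values that the OPERA curators gathered from public databases to train and test their QSAR models. The files give a single number for a compound and property, which may rest on several reports. Method, purity and exact conditions of the single measurements are not given. The measured form (salt, isomer or mixture) is not always the one drawn. Some upstream entries may be estimates or bounds without being marked so.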

The unbound fraction in human plasma runs from 0 (all bound) to 1 (all free).

* O=C(c1ccc(O)cc1O)c1ccc(O)cc1O [2,2',4,4'-tetrahydroxybenzophenone]: plasma fu 0.0354
* N=C(N)N1CCc2ccccc2C1 [Debrisoquin]: plasma fu 0.15
* CCCCOC(=O)[C@@H](C)Oc1ccc(Oc2ccc(C(F)(F)F)cn2)cc1 [Fluazifop-P-butyl]: plasma fu 0.003283
* Cc1cccc(O)c1 [M-cresol]: plasma fu 0.363
* CC(C(=O)O)c1cccc(Oc2ccccc2)c1 (stereo not drawn) [Fenoprofen]: plasma fu 0.0065
* CO [Methanol]: plasma fu 0.9712
* CC(C)[C@H](N)C(=O)OCCOCn1cnc2c(=O)[nH]c(N)nc21 [Valacyclovir]: plasma fu 0.82
* CN1CCC(=C2c3ccccc3CCc3sccc32)CC1 [Pizotyline]: plasma fu 0.09
* Oc1ccc(Nc2ccccc2)cc1 [4-anilinophenol]: plasma fu 0.0582
* CCOc1ccc(NC(C)=O)cc1 [Phenacetin]: plasma fu 0.6222
* CC(C)(Oc1ccc(C2CC2(Cl)Cl)cc1)C(=O)O (stereo not drawn) [Ciprofibrate]: plasma fu 0.05
* CCN(Cc1cccc(S(=O)(=O)[O-])c1)c1ccc(C(=C2C=CC(=[N+](CC)Cc3cccc(S(=O)(=O)[O-])c3)C=C2)c2ccc(O)cc2S(=O)(=O)[O-])cc1.[Na+].[Na+] [Fd&c green no. 3]: plasma fu 0.0151
* CC[C@@H]1C(=O)OC[C@@H]1Cc1cncn1C [Pilocarpine]: plasma fu 0.99
* O=C[C@H](O)[C@@H](O)[C@H](O)[C@H](O)CO [D-Glucose]: plasma fu 0.7
* Cc1ccc(-c2cc(C(F)(F)F)nn2-c2ccc(S(N)(=O)=O)cc2)cc1 [Celecoxib]: plasma fu 0.01783
* C[C@@H](O)[C@H]1C(=O)N2C(C(=O)[O-])=C(SC3Cn4cnc[n+]4C3)[C@H](C)[C@H]12 (stereo partly drawn) [Biapenem]: plasma fu 0.92
* CN(C)CCC(c1ccc(Br)cc1)c1ccccn1 (stereo not drawn) [Brompheniramine]: plasma fu 0.28

The 3 lowest values of plasma fu among the entries above:

{"smiles": "CCCCOC(=O)[C@@H](C)Oc1ccc(Oc2ccc(C(F)(F)F)cn2)cc1", "name": "Fluazifop-P-butyl", "plasma fu": "0.003283"}
{"smiles": "CC(C(=O)O)c1cccc(Oc2ccccc2)c1", "stereo": "stereo not drawn", "name": "Fenoprofen", "plasma fu": "0.0065"}
{"smiles": "CCN(Cc1cccc(S(=O)(=O)[O-])c1)c1ccc(C(=C2C=CC(=[N+](CC)Cc3cccc(S(=O)(=O)[O-])c3)C=C2)c2ccc(O)cc2S(=O)(=O)[O-])cc1.[Na+].[Na+]", "name": "Fd&c green no. 3", "plasma fu": "0.0151"}